Literature values, collected in patent publication US20120164738A1 (priority 2007, published 2012).

Tested on: rodents
Details: in vivo

NC1=NC(C(=O)O)CS1 (stereo not shown) [ATCA, 2-aminothiazoline-4-carboxylic acid]
neurotoxicity: neurotoxicant, forming hippocampal CA1 lesions in rodents
